Biological target: human MCHR1 (Homo sapiens, UniProt Q99705)
Assay: Cyclic AMP assay (MCHR-1 functional antagonism)
Conditions: read-out: MCHR-1 functional Ki; CHO cells stably expressing human MCHR1; cAMP accumulation with 25 uM forskolin and 0.2 nM MCH, 90 min; Ki from IC50 by Cheng-Prusoff

By UniProt entry, the sequences of proteins in these tests, tags left out.
UniProt Q99705, whole entry: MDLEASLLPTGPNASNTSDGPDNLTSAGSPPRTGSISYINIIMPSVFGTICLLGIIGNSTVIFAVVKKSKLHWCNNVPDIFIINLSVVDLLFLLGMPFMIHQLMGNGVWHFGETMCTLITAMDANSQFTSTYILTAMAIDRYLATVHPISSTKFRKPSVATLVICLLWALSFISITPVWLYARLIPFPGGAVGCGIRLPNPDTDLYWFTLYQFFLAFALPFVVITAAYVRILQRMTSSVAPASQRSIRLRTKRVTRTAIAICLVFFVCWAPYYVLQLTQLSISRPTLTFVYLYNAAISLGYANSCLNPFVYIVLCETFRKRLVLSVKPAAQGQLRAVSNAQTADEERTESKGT

`CC(C)(C)OC(=O)N1CC2CCN(c3ccc(-n4ccc(OCc5ccccc5)cc4=O)cn3)C2C1` (single isomer, unassigned) [Example 53a] gave a Ki of 47.6 nM.
Work on `CC(C)(C)OC(=O)N1CC2CCN(c3ccc(-n4ccc(OCc5ccccc5)cc4=O)cn3)C2C1` (single isomer, unassigned) [Example 53b] yielded a Ki of 10 nM.
Compound `O=c1cc(OCc2ccccc2)ccn1-c1ccc(N2C[C@@H]3C[C@H]2CN3)nc1` [68] has a Ki of 119 nM.
In the case of `O=c1cc(OCc2ccccc2)ccn1-c1ccc(N2C[C@@H]3C[C@H]2CN3)nc1` [215], the Ki is reported as 161 nM.
`O=c1cc(OCc2ccccc2)ccn1-c1ccc(N2CC[C@@H](O)C2)nc1` [Example 11, 4-(Benzyloxy)-6′-[(3R)-3hydroxypyrrolidin-1-yl]-2H-1,3′-bipyridin-2-one] showed a Ki of 3840 nM.

Reference: US20080085884A1, “Melanin Concentrating Hormone Receptor-1 Antagonist Pyridinones” (Pfizer Inc, priority 2006, published 2008)
